The record followed here is US11319295B2, “Substituted phenyloxetane and phenyltetrahydrofuran compounds as indoleamine 2,3-dioxygenase (IDO) inhibitors” (MERCK SHARP & DOHME CORP., priority 2017, dated 2022).

Chains of the proteins cited; added tags and fusions are not shown.
UniProt P14902, whole entry: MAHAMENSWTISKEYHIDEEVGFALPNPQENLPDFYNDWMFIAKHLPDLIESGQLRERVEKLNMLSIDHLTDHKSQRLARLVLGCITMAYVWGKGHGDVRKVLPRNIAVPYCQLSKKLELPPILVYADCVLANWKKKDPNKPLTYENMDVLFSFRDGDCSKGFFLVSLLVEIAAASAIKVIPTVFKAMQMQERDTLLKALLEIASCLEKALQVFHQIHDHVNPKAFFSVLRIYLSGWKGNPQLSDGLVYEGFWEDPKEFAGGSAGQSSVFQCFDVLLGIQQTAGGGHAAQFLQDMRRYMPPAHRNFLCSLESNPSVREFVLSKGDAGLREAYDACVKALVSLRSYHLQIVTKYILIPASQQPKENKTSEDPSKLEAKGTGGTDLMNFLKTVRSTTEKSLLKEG

The target of this assay is IDO1 (Homo sapiens, UniProt P14902). Nature of the assay: IDO1 Cellular Assay in Hela Cells Stimulated with IFNγ. To be noted: Hela IC50 (nM), Hela cells stimulated with IFNγ 100 ng/mL, 300 uM L-tryptophan, about 48 hours; form screened: Neutral.

Structures are written as SMILES.

Regarding `CCCC(=O)NC1(c2ccc(NC(=O)c3cccc(Cl)c3)cc2)CCOC1` (stereo not shown) [Example 12, N-(4-(3-Butyramidotetrahydrofuran-3-yl)phenyl)-3-chlorobenzamide], the half-maximal inhibitory concentration (IC50) (as a rule, the midpoint of a concentration-inhibition curve) stood at 1020 nM.
